Data as given in patent US7163959B2, “Prostagladin derivatives for the treatment of glaucoma or ocular hypertension” (priority 1990, dated 2007).

Key:
rabbit eye = assay: Conjunctival hyperemia after topical application in rabbits; format: in vivo; conditions: for Conjunctival hyperemia, in words: topical (Table IV); for Degree of hyperemia: topical, conjunctival hyperemia scale 0 to 4, dose 0.5 μg, PGF2α-IE 0.1 μg
Description: Conjunctival hyperemia after topical application of the test substances was evaluated in rabbits. […] Conjunctival hyperemia was evaluated on a scale from 0 to 4, 0 indicating complete absence of any hyperemia, and 4 indicating marked hyperemia with conjunctival chemosis.

cat eye = assay: Ocular discomfort (irritation) after topical application in cats; conditions: topical (Table III)

Row | Substance | Conjunctival hyperemia, in words (rabbit eye) | Degree of hyperemia (rabbit eye) | Ocular irritation (discomfort), in words (cat eye)
1 | 19-phenyl-20-nor-PGF2α-isopropylester [Substance 20] | very little conjunctival hyperemia | 0.2 ± 0.2 | no or very little irritating effect
2 | 18-phenyl-19,20-dinor-PGF2α-isopropylester [Substance 10] | very little conjunctival hyperemia | 0.3 ± 0.2 | no or very little irritating effect
